This is an account of results in BindingDB's records for doi:10.1124/jpet.301.3.1097 (Harvard University, 2002).

Sequences of proteins named here, by UniProt entry; tags and fusion partners are left off.
UniProt P31652, whole entry: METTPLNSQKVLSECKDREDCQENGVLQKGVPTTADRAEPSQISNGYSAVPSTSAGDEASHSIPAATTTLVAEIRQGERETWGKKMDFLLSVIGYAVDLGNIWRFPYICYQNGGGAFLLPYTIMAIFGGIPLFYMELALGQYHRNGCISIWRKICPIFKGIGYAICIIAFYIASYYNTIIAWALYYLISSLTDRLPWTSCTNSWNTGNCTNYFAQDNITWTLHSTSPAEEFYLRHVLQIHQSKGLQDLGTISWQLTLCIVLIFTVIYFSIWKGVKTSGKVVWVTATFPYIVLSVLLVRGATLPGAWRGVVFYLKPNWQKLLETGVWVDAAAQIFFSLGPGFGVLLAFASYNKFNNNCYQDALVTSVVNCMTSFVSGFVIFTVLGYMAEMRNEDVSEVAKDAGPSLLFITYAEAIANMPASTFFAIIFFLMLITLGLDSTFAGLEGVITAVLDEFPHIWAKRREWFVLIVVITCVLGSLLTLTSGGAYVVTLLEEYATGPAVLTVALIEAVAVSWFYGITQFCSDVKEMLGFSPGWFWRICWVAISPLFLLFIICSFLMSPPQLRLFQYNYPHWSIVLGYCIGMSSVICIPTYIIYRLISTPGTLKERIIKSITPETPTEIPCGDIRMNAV
UniProt P23977, whole entry: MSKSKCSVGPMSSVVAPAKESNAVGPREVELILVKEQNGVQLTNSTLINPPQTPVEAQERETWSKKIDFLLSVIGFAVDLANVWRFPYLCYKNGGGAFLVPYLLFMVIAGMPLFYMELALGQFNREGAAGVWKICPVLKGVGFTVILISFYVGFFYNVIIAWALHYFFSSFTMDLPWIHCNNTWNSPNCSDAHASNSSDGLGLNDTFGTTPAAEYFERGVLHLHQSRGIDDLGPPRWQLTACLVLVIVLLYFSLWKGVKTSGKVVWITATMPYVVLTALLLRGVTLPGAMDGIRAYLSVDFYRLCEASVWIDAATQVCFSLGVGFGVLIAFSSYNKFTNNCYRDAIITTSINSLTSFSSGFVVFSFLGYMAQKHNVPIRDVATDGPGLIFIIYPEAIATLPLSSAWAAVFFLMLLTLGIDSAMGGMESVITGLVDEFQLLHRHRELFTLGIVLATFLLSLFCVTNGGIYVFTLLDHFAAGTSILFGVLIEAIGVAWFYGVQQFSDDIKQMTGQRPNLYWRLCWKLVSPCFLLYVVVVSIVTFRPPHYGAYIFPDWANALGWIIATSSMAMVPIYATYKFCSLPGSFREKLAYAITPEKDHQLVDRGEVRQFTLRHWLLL

Counter-ions that a name gives are not always drawn.

The target in test [1] is Sodium-dependent serotonin transporter (Rattus norvegicus, UniProt P31652).
The target in test [2] is Sodium-dependent dopamine transporter (Rattus norvegicus, UniProt P23977).

Broadly, the Ki is a dissociation constant, usually derived from enzyme kinetics or from competition with a known ligand. Read a high Ki as weaker binding. Turning to `CNCCC(Oc1ccccc1OC)c1ccccc1` (stereo not drawn) [3-(2-methoxyphenoxy)-N-methyl-3-phenylpropan-1-amine], the Ki in test [1] was 158 nM; in test [2] it was 505 nM.

`CN(C)CCCC1(c2ccc(F)cc2)OCc2cc(C#N)ccc21` (stereo not drawn) [CITALOPRAM HYDROBROMIDE]: the Ki in test [2] was > 10000 nM.
